Ki data for one compound are collected here from BindingDB's records for doi:10.1074/jbc.271.42.26315 (Bayer, 1996).

pKi: −log10 of the molar value.

As a reminder, the pKi is the negative decadic logarithm of the Ki, by convention in mol/L. High values mean a small Ki, low ones a large Ki.

This assay deals with T1, Neuropeptide Y receptor type 5 (Homo sapiens, UniProt Q15761).
T1 sequence (Q15761 whole entry): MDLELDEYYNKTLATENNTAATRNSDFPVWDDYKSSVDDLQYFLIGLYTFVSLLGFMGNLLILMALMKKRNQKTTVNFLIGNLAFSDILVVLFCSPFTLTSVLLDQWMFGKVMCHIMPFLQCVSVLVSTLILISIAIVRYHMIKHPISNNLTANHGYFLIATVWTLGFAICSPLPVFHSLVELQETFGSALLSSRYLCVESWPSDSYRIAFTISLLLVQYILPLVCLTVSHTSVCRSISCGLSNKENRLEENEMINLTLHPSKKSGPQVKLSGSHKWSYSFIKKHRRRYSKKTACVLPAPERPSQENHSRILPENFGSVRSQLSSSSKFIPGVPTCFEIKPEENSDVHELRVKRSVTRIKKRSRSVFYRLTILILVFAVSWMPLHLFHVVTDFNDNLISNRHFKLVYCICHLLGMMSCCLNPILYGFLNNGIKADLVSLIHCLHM

Compound `CC[C@H](C)[C@H](NC(=O)[C@@H]1CCCN1C(=O)[C@@H](N)Cc1ccc(O)cc1)C(=O)N[C@@H](CCCCN)C(=O)N1CCC[C@H]1C(=O)N[C@@H](CCC(=O)O)C(=O)N[C@@H](C)C(=O)N1CCC[C@H]1C(=O)NCC(=O)N[C@@H](CCC(=O)O)C(=O)N[C@@H](CC(=O)O)C(=O)N[C@@H](C)C(=O)N[C@@H](CO)C(=O)N1CCC[C@H]1C(=O)N[C@@H](CCC(=O)O)C(=O)N[C@@H](CCC(=O)O)C(=O)N[C@@H](CC(C)C)C(=O)N[C@@H](CC(N)=O)C(=O)N[C@@H](CCCN=C(N)N)C(=O)N[C@@H](Cc1ccc(O)cc1)C(=O)N[C@@H](Cc1ccc(O)cc1)C(=O)N[C@@H](C)C(=O)N[C@@H](CO)C(=O)N[C@@H](CC(C)C)C(=O)N[C@@H](CCCN=C(N)N)C(=O)N[C@@H](Cc1c[nH]cn1)C(=O)N[C@@H](Cc1ccc(O)cc1)C(=O)N[C@@H](CC(C)C)C(=O)N[C@@H](CC(N)=O)C(=O)N[C@@H](CC(C)C)C(=O)N[C@@H](CC(C)C)C(=O)N[C@H](C(=O)N[C@@H](CCCN=C(N)N)C(=O)N1CCC[C@H]1C(=O)N[C@@H](CCCN=C(N)N)C(=O)N[C@@H](Cc1ccc(O)cc1)C(N)=O)[C@@H](C)O` [PYY,[leu31,Pro34], human] gave a pKi of 8.77.
